assay: soluble on expression in E. coli; label from the status in PepcDB or PDB records

Soluble on expression in E. coli, soluble:
MGHHHHHHHHHHSSGHIEGRHMVDMMDLPRSRINAGMLAQFIDKPVCFVGRLEKIHPTGKMFILSDGEGKNGTIELMEPLDEEISGIVEVVGRVTAKATILCTSYVQFKEDSHPFDLGLYNEAVKIIHDFPQFYPLGIVQHD
MSGGSSCSQTPSRAIPATRRVVLGDGVQLPPGDYSTTPGGTLFSTTPGGTRIIYDRKFLMECRNSPVTKTPPRDLPTIPGVTSPSSDEPPMEASQSHLRNSPEDKRAGGEESQFEMDI
MTLSPYLQEVAKRRTFAIISHPDAGKTTITEKVLLFGQAIQTAGTVKGRGSNQHAKSDWMEMEKQRGISITTSVMQFPYHDCLVNLLDTPGHEDFSEDTYRTLTAVDCCLMVIDAAKGVEDRTRKLMEVTRLRDTPILTFMNKLDRDIRDPMELLDEVENELKIGCAPITWPIGCGKLFKGVYHLYKDETYLYQSGKGHTIQEVRIVKGLNNPDLDAAVGEDLAQQLRDELELVKGASNEFDKELFLAGEITPVFFGTALGNFGVDHMLDGLVEWAPAPMPRQTDTRTVEASEDKFTGFVFKIQANMDPKHRDRVAFMRVVSGKYEKGMKLRQVRTAKDVVISDALTFMAGDRSHVEEAYPGDILGLHNHGTIQIGDTFTQGEMMKFTGIPNFAPELFRRIRLKDPLKQKQLLKGLVQLSEEGAVQVFRPISNNDLIVGAVGVLQFDVVVARLKSEYNVEAVYESVNVATARWVECADAKKFEEFKRKNESQLALDGGDNLAYIATSMVNLRLAQERYPDVQFHQTREH

From the DeepSol protein solubility set
